Compound activity as filed in PubChem.
G9a inh: inhibitors of human histone lysine methyltransferase G9a | Q96KQ7 | Potency, µM (series often up to 102 µM), hits mostly inhibitors | actives 8.8% (n = 350,000) | G9a H3K9 monomethylation, AlphaScreen, 2 h; further: nearly all actives have a fitted effect of over 75% in size
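Chemiluminescent proximity detection of H3K9 monomethylation, read after 10 min bead incubation in the dark. Reaction: 20 nM G9a, 500 nM biotin-H3K9 peptide, 20 uM SAM cofactor, 2 h, room temperature, following 15 min enzyme-compound preincubation.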
Lamin A splicing: LMNA splicing modulation. HeLa LMNA splicing GFP/RFP minigene ratio, 48 h. Potency, µM (series often up to 46.1 µM), usual class: inhibitors. actives 0.01% (n = 200,000). AID 1487; active means well fitted inhibition curve with a large enough effect in the signal ratio, with a control signal flat, not every such curve was filed as active; inconclusive means small, poorly fitted or top-dose-only effect, or effect the other way, or a change in a side signal; the % refers to the signal ratio
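S3 HeLa stable clones carrying a lamin A-EGFP splicing minigene plus DsRed2 were seeded at 600 cells/well in Opti-MEM with 2% FBS, pin-dosed and incubated 48 h at 37°C. Acumen cytometry (488 nm) gave the GFP/RFP total-intensity ratio.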
miR-21 reporter: miR-21 reporter, rising signal. HeLa miR-21 FLuc reporter, luciferase, 48 h. Potency, µM (highest dose often 38.3 µM). 340,000 tested, under 10 active. AID 2288; active = well fitted rising curve with a large enough effect; inconclusive = small, poorly fitted or top-dose-only effect; inactive = no such curve, though single readings can be large or run the other way;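 further: miR-21 action dims this reporter so a rising signal means less miR-21 action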
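Luminescence from a firefly luciferase reporter carrying a miR-21 binding site downstream, stably expressed under a CMV promoter in HeLa cells that make miR-21 endogenously, reports miRNA modulation after 48 h compound exposure up to approximately 40uM final.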
KDM4E inh: blocks human JMJD2E demethylase activity. B2RXH2. JMJD2E catalytic domain, FDH-coupled NADH fluorescence (FDH is formaldehyde dehydrogenase). Potency, µM (series often up to 57.1 µM), actives largely listed as inhibitors. actives 1.6% (n = 230,000); active means well fitted inhibition curve with a large enough effect, not every such curve was filed as active; inconclusive means small, poorly fitted or top-dose-only effect, or another doubt; inactive means no such curve, though single readings can be large or run the other way; further: nearly all actives have a fitted effect of over 50% in size
ALDH1A1 block: ALDH1A1 (human) enzyme inhibition | P00352 | Purified ALDH1A1, NADH fluorescence, propionaldehyde substrate | Potency, µM (doses to about 75.3 µM), usual class: inhibitors | actives 7.3% (n = 220,000) | AID 1030; active means well fitted inhibition curve with a large enough effect, not every such curve was filed as active; inconclusive means small, poorly fitted or top-dose-only effect, or another doubt; inactive means no such curve, though single readings can be large or run the other way
Sfp inh: inhibitors of Bacillus subtilis Sfp phosphopantetheinyl transferase; AID 1490; Biochemical Sfp PPTase activity, qHTS; actives 3.5% (n = 310,000); Potency, µM, usual class: inhibitors;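 further: the enzyme is Sfp with the accession as filed and its product quenches rhodamine fluorescence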
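Step 1, compound plus 15 nM Sfp-PPTase, 15 min, room temperature. Step 2, add rhodamine-CoA (5 uM) and BHQ-2-YbbR (12.5 uM). Step 3, read 525/598 nm fluorescence at 0 and 30 min.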
Hits are given with their value; [ ] = another dose, or the depositor's remark. Hits are enriched below; roughly 13% of the tested compounds scored in any of these assays. Unless noted, the call rests on the fitted dose curve; in most records, active means well fitted curve in the direction sought with a large enough effect; inconclusive means small, poorly fitted or top-dose-only effect, or another doubt; inactive means no such curve, though single readings can be large; an effect the other way counts as inactive or inconclusive.

`COc1ccc(N2C(=O)CC(Nc3ccc(C(=O)O)cc3)C2=O)cc1OC` (stereo not drawn) gave G9a inh 40µM, Lamin A splicing inactive, miR-21 reporter inactive, KDM4E inh inactive, ALDH1A1 block inconclusive and Sfp inh inactive.
Screening CN1C(C(=O)N2CCc3ccccc3C2)=CC(c2ccc(F)cc2)=NS1(=O)=O returned G9a inh inconclusive, miR-21 reporter inactive and Sfp inh inactive.
Screening CN(C)S(=O)(=O)N1CCC(n2c(C(F)(F)F)nc3cccnc32)CC1 returned G9a inh inactive and miR-21 reporter inactive.
Screening COc1ccc(C(=O)NCC2(N3CCN(C)CC3)CCCCC2)cc1 returned G9a inh inactive, Lamin A splicing inactive and miR-21 reporter inactive.
Screening CCOc1cc(/C=C/C(=O)N(CC)CC(=O)NCc2cccs2)cc(Cl)c1OC returned G9a inh inactive.
CCCc1cc(-c2nc(-c3ccc(Cl)cc3)cs2)ccn1 was read as G9a inh inactive, Lamin A splicing inconclusive, miR-21 reporter inactive, KDM4E inh inconclusive, ALDH1A1 block inactive and Sfp inh 40µM.
CCN(CC)c1nn2c(=O)c(C(=O)NCCc3ccccc3C)cnc2s1 was read as G9a inh inactive, Lamin A splicing inactive and miR-21 reporter inactive.
Screening Cc1cc2c(N=O)c(NO)ccc2[nH]1 returned G9a inh inactive, Lamin A splicing inconclusive, miR-21 reporter inconclusive, KDM4E inh 11µM, ALDH1A1 block inactive and Sfp inh inactive.
O=Nc1c(O)[nH]c2ccc(F)cc12 was read as G9a inh inactive, Lamin A splicing inactive, miR-21 reporter inactive, KDM4E inh inactive, ALDH1A1 block inactive and Sfp inh inactive.
For O=C(Cn1c(=O)n(Cc2ccco2)c(=O)c2c3c(sc21)CCCCC3)c1ccccc1 the results were G9a inh inactive, Lamin A splicing inactive, miR-21 reporter inactive, KDM4E inh inactive, ALDH1A1 block inconclusive and Sfp inh 56µM.
CN(C)CCn1c(=O)n(Cc2ccco2)c(=O)c2c3c(sc21)CCCCC3 was read as G9a inh inconclusive, Lamin A splicing inactive, miR-21 reporter inactive, KDM4E inh inactive, ALDH1A1 block inconclusive and Sfp inh inactive.
For Cc1ccc(NC(=O)Cn2c(=O)n(CCc3ccccc3)c(=O)c3c4c(sc32)CCCC4)cc1C the results were G9a inh inactive and miR-21 reporter inactive.
For O=c1c2c3c(sc2n(CCN2CCCC2)c(=O)n1Cc1ccco1)CCCCC3 the results were G9a inh inactive, Lamin A splicing inactive, miR-21 reporter inactive, KDM4E inh inactive, ALDH1A1 block 5µM and Sfp inh inactive.
`O=C(O)Cn1c(=O)c2c3c(sc2n(Cc2ccccc2)c1=O)CCCC3` gave G9a inh inactive, miR-21 reporter inactive and Sfp inh inactive.
Screening O=C(Cn1c(=O)n(Cc2ccco2)c(=O)c2c3c(sc21)CCCCC3)Nc1ccccc1 returned Lamin A splicing inconclusive, miR-21 reporter inactive, KDM4E inh inconclusive, ALDH1A1 block 7.1µM and Sfp inh inactive.
Screening CCCN(CC1CCCO1)C(=O)c1cc(COc2ccc(F)cc2F)on1 (stereo not drawn) returned G9a inh inconclusive, miR-21 reporter inactive and Sfp inh inactive.
For COC(=O)c1ccc(CCc2cc(O)ccc2O)cc1 the results were ALDH1A1 block 0.63µM.
`N/C(=N\N=C/c1ccc(F)cc1)N/N=C\c1ccc(F)cc1` gave G9a inh 50µM, miR-21 reporter inactive and Sfp inh inactive.
N/C(=N\N=C\c1ccc(Cl)cc1)N/N=C/c1ccc(Cl)cc1 was read as G9a inh inactive[12.7 µM] and Sfp inh 79µM.
Cc1cccc(CC(Cc2nc3ccccc3[nH]2)c2nc3ccccc3[nH]2)c1 (stereo not drawn) was read as G9a inh inconclusive, Lamin A splicing inactive, miR-21 reporter inactive, KDM4E inh inactive, ALDH1A1 block inactive and Sfp inh 40µM.
O=C(c1ccc(NS(=O)(=O)c2cccc(F)c2)cc1)N1CCCCC1 was read as G9a inh inactive, miR-21 reporter inactive and Sfp inh inactive.
